Values of other authors, collected in US6207411A, “Bacteriocins” (priority 1995, dated 2001).

System: proteases
Conditions: nisin, background, cited from earlier work

For nisin, which Sensitivity to alpha-chymotrypsin is on record?
The Sensitivity to alpha-chymotrypsin was “degraded”.

And the “Sensitivity to carboxypeptidase A” value?
The value was “insensitive”.

And the Sensitivity to elastase?
The Sensitivity to elastase was “insensitive”.

And the Sensitivity to erepsin?
The Sensitivity to erepsin was “insensitive”.

What about the Sensitivity to pancreatin of the same substance?
The Sensitivity to pancreatin was “degraded”.

And the Sensitivity to pepsin?
The Sensitivity to pepsin was “insensitive”.

And the Sensitivity to subtilopeptidase?
Its Sensitivity to subtilopeptidase is “degraded”.

And the Sensitivity to trypsin?
The Sensitivity to trypsin was “not sensitive”.

And the Sensitivity to alpha-chymotrypsin (listed as Nisin)?
Its Sensitivity to alpha-chymotrypsin is “inactivated”.

And the Sensitivity to pancreatin (listed as Nisin)?
The Sensitivity to pancreatin was “inactivated”.

And the Sensitivity to subtilopeptidase (listed as Nisin)?
Its Sensitivity to subtilopeptidase is “inactivated”.

What about the Sensitivity to trypsin (listed as Nisin) of the same substance?
The Sensitivity to trypsin was “insensitive”.

Where two headings read alike, the source gives them in different places.
